These are literature values, as cited in PMC10866537.

Protein sequences, listed by entry. Tags and fused reporters are not part of them. Residues count along the entry.
UniProt P42081, 24-247: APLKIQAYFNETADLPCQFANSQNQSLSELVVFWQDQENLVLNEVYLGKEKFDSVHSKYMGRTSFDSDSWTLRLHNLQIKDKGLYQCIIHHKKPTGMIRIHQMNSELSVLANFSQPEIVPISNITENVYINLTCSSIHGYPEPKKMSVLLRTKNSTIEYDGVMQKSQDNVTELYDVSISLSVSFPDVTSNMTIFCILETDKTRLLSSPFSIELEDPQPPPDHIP

Series [1] addresses CD86 (Homo sapiens) (UniProt P42081). Particulars: cited from earlier work.
In series [2] the target is CD80 (Homo sapiens) (UniProt P33681). Conditions: cited from earlier work.

Broadly, the Kd is a measure of binding affinity in units of concentration. With CTLA4 (from UniProt P16410), the Kd in series [1] is 2.6 µM; in series [2], 0.2 µM.
